# Literature values, collected in US7908091B2, “Methods of predicting and monitoring tyrosine kinase inhibitor therapy” (Prometheus Laboratories Inc., priority 2006, dated 2011).
# Conditions: human, in vivo; cited from earlier work
compound,measurement,value
Clc1ccc(Nc2nnc(Cc3ccncc3)c3ccccc23)cc1 [vatalanib],most common / toxic side-effects,"ataxia, vertigo, hypertension, and venous thromboembolism"
